In PubChem BioAssay (NCI):
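Exposure lasted 48 hours, with cells grown in 96-well plates and compounds tested at five concentrations. Abbreviation: GI50, concentration required for 50% inhibition of growth. TGI: concentration producing complete growth inhibition.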

Key:
Experiment in all cases: inhibition of tumour cell growth, NCI panel, 48 h
[1] = test system: NCI-H460 lung
[2] = test system: A549 NSCLC
[3] = test system: HCT-116 colon
[4] = test system: PC-3 prostate
[5] = test system: SF-268 CNS
[6] = test system: SK-OV-3 ovarian
[7] = test system: U251 CNS
[8] = test system: A498 renal
[9] = test system: SW-620 colon
[10] = test system: OVCAR-4 ovarian
[11] = test system: NCI-H322M lung
[12] = test system: RXF 393 renal
[13] = test system: OVCAR-5 ovarian
[14] = test system: K-562 leukemia
[15] = test system: SK-MEL-2 melanoma
[16] = test system: NCI-H226 lung
[17] = test system: MDA-MB-435
[18] = test system: UACC-62 melanoma
[19] = test system: ACHN renal
[20] = test system: UO-31 renal
[21] = test system: OVCAR-3 ovarian
[22] = test system: SK-MEL-28 melanoma
[23] = test system: MALME-3M melanoma
[24] = test system: MDA-MB-231 breast
[25] = test system: NCI-H23 lung
[26] = test system: HS 578T breast
[27] = test system: SK-MEL-5 melanoma
[28] = test system: SNB-19 CNS
[29] = test system: MDA-N
[30] = test system: SR leukemia
[31] = test system: SF-295 CNS
[32] = test system: KM12 colon
[33] = test system: HOP-92 NSCLC
[34] = test system: T-47D breast
[35] = test system: NCI-H522 lung
[36] = test system: LOX IMVI melanoma
[37] = test system: EKVX NSCLC
[38] = test system: UACC-257 melanoma
[39] = test system: MCF7 breast
[40] = test system: CCRF-CEM leukemia
[41] = test system: HOP-62 NSCLC
[42] = test system: HT29 colon
[43] = test system: DU-145 prostate
[44] = test system: 786-0 renal
[45] = test system: TK-10 renal
[46] = test system: NCI/ADR-RES ovarian
[47] = test system: HL-60(TB) leukemia
[48] = test system: RPMI-8226 leukemia
[49] = test system: OVCAR-8 ovarian
[50] = test system: HCT-15 colon
[51] = test system: CAKI-1 renal
[52] = test system: BT-549 breast
[53] = test system: M14 melanoma
[54] = test system: SF-539 CNS
[55] = test system: IGROV1 ovarian
[56] = test system: SNB-75 CNS
[57] = test system: COLO 205 colon
[58] = test system: MOLT-4 leukemia
[59] = test system: SN12C renal
[60] = test system: HCC-2998 colon

`NC(=O)CNc1ccc([As](=O)(O)O)cc1` was tested, and the GI50 [1] was > 100 µM, the TGI [1] was > 100 µM and the GI50 [2] was > 100 µM. For the same compound, the TGI [2] was > 100 µM, the GI50 [3] was > 100 µM and the TGI [3] was > 100 µM. For the same compound, the GI50 [4] was > 100 µM, the TGI [4] was > 100 µM and the GI50 [5] was > 100 µM. For the same compound, the TGI [5] was > 100 µM, the GI50 [6] was > 100 µM and the TGI [6] was > 100 µM. For the same compound, the GI50 [7] was > 100 µM, the TGI [7] was > 100 µM and the GI50 [8] was > 100 µM. The TGI [8] was > 100 µM, the GI50 [9] was > 100 µM and the TGI [9] was > 100 µM. The GI50 [10] was > 100 µM, the TGI [10] was > 100 µM and the GI50 [11] was > 100 µM. For the same compound, the TGI [11] was > 100 µM, the GI50 [12] was > 100 µM and the TGI [12] was > 100 µM. For the same compound, the GI50 [13] was > 100 µM, the TGI [13] was > 100 µM and the GI50 [14] was > 100 µM. The TGI [14] was > 100 µM, the GI50 [15] was > 100 µM and the TGI [15] was > 100 µM. For the same compound, the GI50 [16] was > 100 µM, the TGI [16] was > 100 µM and the GI50 [17] was > 100 µM. For the same compound, the TGI [17] was > 100 µM, the GI50 [18] was > 100 µM and the TGI [18] was > 100 µM. For the same compound, the GI50 [19] was > 100 µM, the TGI [19] was > 100 µM and the GI50 [20] was > 100 µM. For the same compound, the TGI [20] was > 100 µM, the GI50 [21] was > 100 µM and the TGI [21] was > 100 µM. For the same compound, the GI50 [22] was > 100 µM, the TGI [22] was > 100 µM and the GI50 [23] was > 100 µM. For the same compound, the TGI [23] was > 100 µM, the GI50 [24] was > 100 µM and the TGI [24] was > 100 µM. For the same compound, the GI50 [25] was > 100 µM, the TGI [25] was > 100 µM and the GI50 [26] was > 100 µM. The TGI [26] was > 100 µM, the GI50 [27] was > 100 µM and the TGI [27] was > 100 µM. The GI50 [28] was > 100 µM, the TGI [28] was > 100 µM and the GI50 [29] was > 100 µM. For the same compound, the TGI [29] was > 100 µM, the GI50 [30] was > 100 µM and the TGI [30] was > 100 µM. For the same compound, the GI50 [31] was > 100 µM, the TGI [31] was > 100 µM and the GI50 [32] was > 100 µM. The TGI [32] was > 100 µM, the GI50 [33] was > 100 µM and the TGI [33] was > 100 µM. The GI50 [34] was > 100 µM, the TGI [34] was > 100 µM and the GI50 [35] was > 100 µM. The TGI [35] was > 100 µM, the GI50 [36] was > 100 µM and the TGI [36] was > 100 µM. The GI50 [37] was > 100 µM, the TGI [37] was > 100 µM and the GI50 [38] was > 100 µM. The TGI [38] was > 100 µM, the GI50 [39] was > 100 µM and the TGI [39] was > 100 µM. The GI50 [40] was > 100 µM, the TGI [40] was > 100 µM and the GI50 [41] was > 100 µM. The TGI [41] was > 100 µM, the GI50 [42] was > 100 µM and the TGI [42] was > 100 µM. For the same compound, the GI50 [43] was > 100 µM, the TGI [43] was > 100 µM and the GI50 [44] was > 100 µM. For the same compound, the TGI [44] was > 100 µM, the GI50 [45] was > 100 µM and the TGI [45] was > 100 µM. The GI50 [46] was > 100 µM, the TGI [46] was > 100 µM and the GI50 [47] was > 100 µM. For the same compound, the TGI [47] was > 100 µM, the GI50 [48] was > 100 µM and the TGI [48] was > 100 µM. The GI50 [49] was > 100 µM, the TGI [49] was > 100 µM and the GI50 [50] was > 100 µM. For the same compound, the TGI [50] was > 100 µM, the GI50 [51] was > 100 µM and the TGI [51] was > 100 µM. The GI50 [52] was > 100 µM, the TGI [52] was > 100 µM and the GI50 [53] was > 100 µM. The TGI [53] was > 100 µM, the GI50 [54] was > 100 µM and the TGI [54] was > 100 µM. The GI50 [55] was > 100 µM, the TGI [55] was > 100 µM and the GI50 [56] was > 100 µM. For the same compound, the TGI [56] was > 100 µM, the GI50 [57] was > 100 µM and the TGI [57] was > 100 µM. The GI50 [58] was 8.11 µM, the TGI [58] was > 100 µM and the GI50 [59] was > 100 µM. The TGI [59] was > 100 µM, the GI50 [60] was > 100 µM and the TGI [60] was > 100 µM.
